Data on two compounds can be found in US20160272620A1 (priority 2013, published 2016).

The chains behind the UniProt entries cited, without tags or fusion partners. Residues count along the entry.
UniProt P22303, 32-574: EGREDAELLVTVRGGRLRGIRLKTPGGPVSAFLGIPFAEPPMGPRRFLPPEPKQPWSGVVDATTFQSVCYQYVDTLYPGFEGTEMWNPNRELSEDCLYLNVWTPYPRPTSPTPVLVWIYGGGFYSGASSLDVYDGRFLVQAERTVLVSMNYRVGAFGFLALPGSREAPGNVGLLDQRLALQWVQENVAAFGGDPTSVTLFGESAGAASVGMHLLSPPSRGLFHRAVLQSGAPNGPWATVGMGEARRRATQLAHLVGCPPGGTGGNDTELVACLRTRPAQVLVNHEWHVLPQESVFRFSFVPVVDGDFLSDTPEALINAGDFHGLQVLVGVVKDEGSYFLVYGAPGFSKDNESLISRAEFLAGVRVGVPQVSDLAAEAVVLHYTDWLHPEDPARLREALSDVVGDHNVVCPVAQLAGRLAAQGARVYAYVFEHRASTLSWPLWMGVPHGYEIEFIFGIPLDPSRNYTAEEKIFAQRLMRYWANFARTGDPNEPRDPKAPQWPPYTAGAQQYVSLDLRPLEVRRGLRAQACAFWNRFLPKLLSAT
UniProt P22303, 32-614: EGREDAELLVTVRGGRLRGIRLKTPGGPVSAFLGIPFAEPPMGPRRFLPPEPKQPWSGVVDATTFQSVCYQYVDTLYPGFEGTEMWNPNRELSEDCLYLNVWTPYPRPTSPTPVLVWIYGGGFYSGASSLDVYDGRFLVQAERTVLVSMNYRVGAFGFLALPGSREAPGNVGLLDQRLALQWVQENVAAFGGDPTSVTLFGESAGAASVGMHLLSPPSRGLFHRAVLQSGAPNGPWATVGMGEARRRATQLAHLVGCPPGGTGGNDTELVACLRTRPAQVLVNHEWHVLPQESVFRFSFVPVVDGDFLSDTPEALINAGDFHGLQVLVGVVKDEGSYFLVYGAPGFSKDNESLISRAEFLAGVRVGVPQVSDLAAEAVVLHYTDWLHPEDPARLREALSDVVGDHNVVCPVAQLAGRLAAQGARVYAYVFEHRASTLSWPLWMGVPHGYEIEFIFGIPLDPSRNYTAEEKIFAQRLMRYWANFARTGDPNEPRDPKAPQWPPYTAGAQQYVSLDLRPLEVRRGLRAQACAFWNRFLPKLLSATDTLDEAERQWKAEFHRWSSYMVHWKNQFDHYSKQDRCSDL

In general, Kd refers to the constant that tells how readily two partners part at equilibrium. Broadly, the IC50 is the concentration needed to halve the response being measured.

Where two headings read alike, the source gives them in different places.

The target in one assay is paraoxon-hAChE (Homo sapiens, UniProt P22303). As to the kind of experiment: biochemical.
The target in the next assay is Recombinant hAChE (Homo sapiens, UniProt P22303). Format: biochemical.

At paraoxon-hAChE, `ON=Cc1nc(CCCCNc2c3c(nc4ccccc24)CCCC3)ccc1O` [Compound 12, 2-[1-(hydroxyimino)methyl]-6-{4-[(1,2,3,4-tetrahydroacridin-9-yl)amino]butyl}pyridin-3-ol] had a Kd of 3600 ± 200 nM.
Take `O/N=C/c1nc(CCCCCNc2c3c(nc4ccccc24)CCCC3)ccc1O` [Compound 11, 2-[(1E)-(hydroxyimino)methyl]-6-{5-[(1,2,3,4-tetrahydroacridin-9-yl)amino]pentyl}pyridin-3-ol]: on Recombinant hAChE, the IC50 is 260 ± 10 nM. For the same compound, at paraoxon-hAChE (read-out: KD), the Kd worked out at 1100 ± 100 nM.
